Test results taken from patent US12653859B2, “Peptides and medical uses thereof” (Anbition S.R.L., priority 2018, dated 2026).

Protein sequences, listed by entry. Tags and fused reporters are not part of them. Residues count along the entry.
UniProt P17948, 27-758 limits assumed: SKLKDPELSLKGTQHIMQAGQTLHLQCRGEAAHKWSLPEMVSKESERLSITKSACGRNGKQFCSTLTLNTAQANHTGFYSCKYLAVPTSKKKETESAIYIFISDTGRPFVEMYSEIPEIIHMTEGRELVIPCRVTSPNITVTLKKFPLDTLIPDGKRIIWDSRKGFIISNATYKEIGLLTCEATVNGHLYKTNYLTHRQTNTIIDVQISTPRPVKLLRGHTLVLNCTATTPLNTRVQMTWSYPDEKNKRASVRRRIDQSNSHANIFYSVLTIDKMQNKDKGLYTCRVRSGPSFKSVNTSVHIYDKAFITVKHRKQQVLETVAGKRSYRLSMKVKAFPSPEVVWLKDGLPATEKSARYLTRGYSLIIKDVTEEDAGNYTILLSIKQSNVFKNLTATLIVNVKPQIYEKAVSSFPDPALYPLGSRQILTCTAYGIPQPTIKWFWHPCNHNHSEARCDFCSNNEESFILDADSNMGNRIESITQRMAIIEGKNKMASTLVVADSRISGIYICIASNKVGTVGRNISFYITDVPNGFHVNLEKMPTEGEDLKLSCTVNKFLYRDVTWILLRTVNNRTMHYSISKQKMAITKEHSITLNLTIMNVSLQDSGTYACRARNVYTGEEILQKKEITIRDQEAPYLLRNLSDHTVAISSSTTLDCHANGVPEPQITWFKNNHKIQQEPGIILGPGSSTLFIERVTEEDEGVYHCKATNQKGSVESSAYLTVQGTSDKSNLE

Target: T1, VEGF-A/VEGFR-1 interaction (Homo sapiens, UniProt P17948)
T1 construct: the form consisting of the seven extracellular domains of the receptor fused to the Fc domain of human IgG; purchased R&D Systems 321-FL (receptor); 293-VE (VEGF-A)
Test: ELISA competition assay of VEGF-A binding to VEGFR-1
Conditions: tetrameric peptides of formula (II) with Y2 different from D-cysteine; read-out: IC50 of inhibition of the interaction VEGF-A/VEGFR-1
Protocol: The binding reaction was conducted for one hour at 37° C., followed by one hour at room temperature. At the end of the binding and/or competition step, anti-human-PIGF biotinylated polyclonal antibodies (R&D Systems, cat No. BAF264) or anti-human-VEGF-A (R&D Systems, cat No. BAF293) were added to the wells at the concentration of 300 ng/ml in PBET. After one hour of incubation at 37° C. followed by one hour at room temperature, an HRP-conjugated avidin-streptavidin system (Vectastain elite ABC kit) and a substrate for HRP (o-phenylenediamine-Sigma, cat No. P1526) were added to the wells. Quantization was performed by determining the absorbance at 490 nm. Any inhibitory activity of the peptides was expressed in terms of % of residual binding, comparing the data obtained for the binding of PIGF or VEGF-A to the receptors in the presence of the tetrameric peptides with those in the absence of the same. iVR1 represented the positive control of the inhibition of the PIGF/VEGFR-1 or VEGF-A/VEGFR-1 interaction.

Substance	IC50
D-threonine	2600 ± 600 nM
L-methionine	2150 ± 1000 nM
L-methionine sulfoxide	15700 ± 2100 nM
L-threonine	1290 ± 500 nM
